Tested on: rat peritoneal mast cells
Test: In vitro histamine induction in rat peritoneal mast cells
Assay type: cell-based
Settings: Table 9, 15 minutes, 37° C.
Method: To further evaluate the relationship between compound structure and histamine release, a series of compounds was prepared and assessed for their ability to trigger induction of histamine in an in vitro assay using rat peritoneal mast cells. In this assay, compounds are incubated at 10 μM for 15 minutes at 37° C. with cells isolated from peritoneal lavage of SD rats. Following incubation, cell medium is collected and histamine is determined.
Accordingly, and as can be appreciated in view of the PTH data and the histamine data described hereinabove, in one embodiment, a compound that has activity to decrease PTH level in a subject in the absence of a histamine response is contemplated. In certain embodiments, absence of a histamine response intends a dose of the compound that produces a less than 10-fold, more preferably 8-fold, still more preferably 5-fold, and even still more preferably 3-fold, increase in histamine, measured in vitro in an assay as described herein, where the fold change is determined based on histamine levels before incubation with the compound and after 15 minutes incubation with compound. […] Cell supernatant was analyzed for histamine using histamine EIA kit (Cayman #589651). […]

| Substance | Histamine in vitro Fold change of non-treated at 10 uM |
| --- | --- |
| Ac-ca(DAP)rrar-NH2 [SEQ ID NO: 153] | 1.6 fold |
| Ac-carrr-Nle-r-NH2 [SEQ ID NO: 129] | 2.6 fold |

From patent publication US10280198B2, “Therapeutic agents for reducing parathyroid hormone levels” (KAI PHARMACEUTICALS, INC., priority 2009, dated 2019)
